Values quoted from earlier work, collected in US20240115662A1, “METHODS OF TREATING HYPOGONADOTROPIC HYPOGONADISM AND COGNITION IMPAIRMENT FOLLOWING A TRAUMATIC BRAIN INJURY” (WISCONSIN ALUMNI RESEARCH FOUNDATION, priority 2021, published 2024).
Like-named read-outs stand apart in the source and are kept apart here.

How the values were obtained:
[1] = cited from earlier work; for terminal half-life: subcutaneous administration
female mice = conditions: cited from earlier work; for increase in the number of BrdU-labeled cells: female mice, LH subcutaneously 2 days

Substance | half-life ([1]; in vivo) | increase in the number of BrdU-labeled cells (female mice; SVZ) | increase in the number of BrdU-labeled cells (female mice; dentate gyrus) | SVZ and dentate gyrus proliferation (female mice; ovariectomized female mice) | terminal half-life [1]
LH: heterodimeric glycoprotein hormone, luteinizing hormone (β subunit SEQ ID NO:3) | about 20 minutes | 29% | 53% | increased SVZ and dentate gyrus proliferation | 
r-hLH: recombinant human luteinizing hormone |  |  |  |  | 21 to 24 h
recombinant hCG: recombinant human chorionic gonadotropin |  |  |  |  | 32 to 33 h
